Read-outs that look alike come from different tables or passages of the source.
Tested on: N-methyl-D-aspartate receptor
Assay type: in vivo, human
Settings: for percentage change in mean Ki of [^11C]GMOM after S-ketamine: outlier excluded, 2T3k_VB model
[1] = linear mixed effects model analysis, significant but small

CN[C@]1(c2ccccc2Cl)CCCCC1=O [S-ketamine, reference compound]
increase of Ki of [^11C]GMOM after S-ketamine in one subject (outlier) (all ROI, single outlier subject): > 75% | percentage change in mean Ki of [^11C]GMOM after S-ketamine (hippocampus): −70 ± 12% | increase in K1 of [^11C]GMOM after the challenge [1]: 7% | increase in VND of [^11C]GMOM after the challenge [1]: 10% | change in Ki of [^11C]GMOM after S-ketamine challenge at the whole brain level (linear mixed effects model, p < 0.0001): significant decrease | percentage change in mean Ki of [^11C]GMOM after S-ketamine (thalamus): −79 ± 24% | percentage change in mean Ki of [^11C]GMOM after S-ketamine (total brain gray matter): −66 ± 23%

Source: PMC4904354 (Journal of Cerebral Blood Flow & Metabolism, 2015)
